Experimental data: patent US20020187534A1, “Treating cancer by increasing intracellular malonyl CoA levels” (priority 1999, published 2002)

Test system: CPT-1
Experiment: Carnitine palmitoyltransferase-1 (CPT-1) assay in permeabilized MCF-7 cells
Format: cell-based, human
Description: MCF-7 cells were plated in RPMI 1640 with 10% fetal bovine serum at 1×10^6 cells in six-well plates in triplicate. Following overnight incubation at 37° C., medium was removed and replaced with 700 μl of assay medium consisting of: 50 mM imidazole, 70 mM KCl, 80 mM sucrose, 1 mM EGTA, 2 mM MgCl2, 1 mM DTT, 1 mM KCN, 1 mM ATP, 0.1% fatty acid free bovine serum albumin, 70 μM palmitoyl-CoA, 0.25 μCi (methyl-^14C]L-camitine, 40 μg digitonin with or without 20 μM malonyl-CoA or other indicated inhibitors.
After incubation for 3 or 6 minutes at 37° C., the reaction was stopped by the addition of 500 μl of ice-cold 4 M perchloric acid. Cells were then harvested and centrifuged at 10,000× g for 5 min. The pellet was washed with 500 μl ice cold perchloric acid and centrifuged again. The resulting pellet was resuspended in 800 μl dH2O and extracted with 150 μl of butanol. The butanol phase was counted by liquid scintillation and represents the acylcarnitine derivative.

## C/C=C/C/C=C/CCC(=O)[C@H]1O[C@H]1C(N)=O [cerulenin]
  direct inhibition of CPT-1: does not inhibit CPT-1 directly
10 μg/ml
  CPT-1 activity versus vehicle control: slight, but not statistically significant increase
